pKi: −log10 of the molar value.
Target: Sodium-dependent dopamine transporter (Rattus norvegicus, UniProt P23977)
Assay: Ability to inhibit high affinity uptake of [3H]DA at Dopamine transporter (DAT) using rat brain striatum
Assay type: tissue-based
Summary of the method: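 Rat synaptosomal (P2) uptake: striatum for DAT, midbrain for SERT, parietal/occipital cortex for NET, in modified KRH pH 7.4 with nialamide. Drug preincubated 30 min at 4 °C, then 15 min at 37 °C. [3H]amine final ~5 nM (DA, 5-HT) or 9 nM (NE), 5 min uptake, stopped with cold Na-free buffer and filtered. Background from 0 °C tubes. IC50 converted to Ki by Cheng–Prusoff. Mean ± SE, ≥3 experiments.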

Sequences of proteins named here, by UniProt entry; tags and fusion partners are left off.
UniProt P23977, whole entry: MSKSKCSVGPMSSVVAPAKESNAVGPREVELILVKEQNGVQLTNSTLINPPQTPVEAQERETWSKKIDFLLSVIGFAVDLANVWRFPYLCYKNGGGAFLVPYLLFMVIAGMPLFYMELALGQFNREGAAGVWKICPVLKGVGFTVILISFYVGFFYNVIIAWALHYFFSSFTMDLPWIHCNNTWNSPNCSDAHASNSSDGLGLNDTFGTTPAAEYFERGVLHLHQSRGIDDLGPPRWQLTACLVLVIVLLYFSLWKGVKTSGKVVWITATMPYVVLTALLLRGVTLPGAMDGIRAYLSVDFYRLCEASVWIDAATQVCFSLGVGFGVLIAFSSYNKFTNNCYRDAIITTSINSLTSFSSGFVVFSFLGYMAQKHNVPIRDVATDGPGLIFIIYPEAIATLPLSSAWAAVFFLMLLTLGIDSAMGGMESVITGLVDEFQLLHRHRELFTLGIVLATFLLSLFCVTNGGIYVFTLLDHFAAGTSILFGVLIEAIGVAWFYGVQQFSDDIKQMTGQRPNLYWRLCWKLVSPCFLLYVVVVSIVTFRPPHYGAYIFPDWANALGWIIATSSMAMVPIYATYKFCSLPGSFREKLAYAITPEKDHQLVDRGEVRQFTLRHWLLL

Row | Structure (SMILES) | pKi
1 | CNC(=O)C[C@H]1CN(C)CC[C@@H]1c1ccc(Cl)cc1 | 6.03
2 | CN1CC[C@H](c2ccc(Cl)cc2)[C@@H](C(=O)O)C1 | 3.76
